# Measured values published in paper PMC9628480, “Discovery and structural characterization of chicoric acid as a SARS-CoV-2 nucleocapsid protein ligand and RNA binding disruptor” (Scientific Reports, 2022).
# Columns and labels:
# [1] = target: T1, N protein-RNA1 complex (Severe acute respiratory syndrome coronavirus 2, UniProt P0DTC9); type: binding, SARS-CoV-2
# T1 construct: made in house; host or cells: Escherichia coli BL21 (DE3)
# [2] = target: T2, SARS-CoV-2 N protein (full-length) (Severe acute respiratory syndrome coronavirus 2, UniProt P0DTC9); test: DLS aggregation assay of N protein; conditions: compound 20 µM, two-fold molar excess
# T2 construct: made in house; host or cells: Escherichia coli BL21 (DE3)
smiles,measurement,setting,value
O=C(O)C[C@@H]1C(=O)O[C@H]2[C@H](OC(=O)c3cc(O)c(O)c(O)c3)[C@@H](OC(=O)c3cc(O)c(O)c4c3[C@H]1[C@H](O)C(=O)O4)[C@H](OC(=O)c1cc(O)c(O)c(O)c1)O[C@@H]2COC(=O)c1cc(O)c(O)c(O)c1 [Chebulinic acid],binding affinity of the N protein to RNA1 in the presence of compound,[1],significantly reduced
same,effect on hydrodynamic radius (Rh) / oligomeric state of the N protein (DLS),[2],did not significantly change
